Here are results for 1 compound from article PMC6602958, “Pharmacokinetics of anti-infectious reagents in silkworms” (Scientific Reports, 2019).

For this data set, the system named is cytochrome P450. The experiment in a line: Decay of cytochrome P450 substrates in in vitro culture of the silkworm midgut (HPLC). The protocol:
Silkworm midgut was incubated in medium with cytochrome P450 substrates at 30 °C. The samples were collected, extracted by acetone, and evaporated. The amounts of substrates were determined by HPLC analysis.
Silkworms (5th instar, 5 days) were dissected in a buffer (10 mM HEPES/NaOH, 0.9% NaCl, pH 7.9), and isolated organs were incubated with 3 mL TC-100 medium containing 10% fetal bovine serum, 50 µg/ml gentamicin, and substrates for the metabolic reaction. Whole samples (medium and organ) were homogenized and extracted by equal volumes of acetone followed by evaporation. Extracted samples were dissolved in 50 mM NaOAc buffer and treated with beta-glucosidase to measure the fluorescence of metabolized 7-ethoxycoumarin[6]. […] Samples for HPLC were dissolved in 50% methanol. HPLC analysis was performed using a PEGASIL ODS SP column (φ4.5 mm × 250 mm) with isocratic elution at a flow rate of 1 ml/min.

Setting [1] is: midgut culture, 1 h, raw data of Fig. 3.
The mark [2] stands for this setting: midgut culture, 4 h, raw data of Fig. 3.

Structures are written as SMILES.

Regarding `CO[C@H]1/C=C/O[C@@]2(C)Oc3c(C)c(O)c4c(O)c(c(/C=N/N5CCN(C)CC5)c(O)c4c3C2=O)NC(=O)/C(C)=C\C=C\[C@H](C)[C@H](O)[C@@H](C)[C@@H](O)[C@@H](C)[C@H](OC(C)=O)[C@@H]1C` [Rifampicin], the “Metabolism in the silkworm midgut (in words)” value (in vitro organ culture, up to 20 h incubation) is listed as “metabolized in the silkworm midgut”. Also, the “HPLC peak area of substrate, Sample 2” value runs as follows: (midgut culture, 0 h, raw data of Fig. 3) 304932; under setting [1], 279934; under setting [2], 211730; (silkworm (Bombyx mori)) 64653. Besides, the “HPLC peak area of substrate, Sample 1” value runs as follows: under setting [1], 270164; under setting [2], 239359; (midgut culture, 20 h, raw data of Fig. 3) 86676; (silkworm (Bombyx mori)) 317015.
